PubChem BioAssay AID608 (Sanford-Burnham Center for Chemical Genomics, 2007)
Activity calls are given as the source filed them. No rule for the calls is given here.

The chains behind the UniProt entries cited, without tags or fusion partners.
UniProt P62942, whole entry, looked up: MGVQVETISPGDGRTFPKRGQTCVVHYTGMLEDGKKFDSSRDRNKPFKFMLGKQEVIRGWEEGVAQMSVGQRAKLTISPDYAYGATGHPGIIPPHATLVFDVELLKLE

Biological target: Peptidyl-prolyl cis-trans isomerase FKBP1A (Homo sapiens) (UniProt P62942)
Test: small-molecule binding to FKBP12 – biophysical, NMR detection (AID 608)
Settings: purified FKBP12

With `Cc1c2non([O-])c-2c(C)[n+](=O)[n+]1[O-]` the Kd was “inactive”.
